Patent US20040072240A1

Target: HLA A2.1 molecule (human)
Assay: T2 cells, flow cytometry (BB7.2); reference HIVpol 589

Binder: ALIHHNTHL (modifications not checked) [HER-2/neu 466]
- RA (relative affinity): 4.8
